Binding of CDR-mutated scFvs to a peptide of the spike HR2 region

Target peptide (SARS-CoV-2 spike, HR2 region): PDVDLGDISGINAS

Ab-14 is the parent antibody, in scFv form: VH, then a (GGGGS)3 linker, then VL. The light chain is unchanged in all variants.
VH: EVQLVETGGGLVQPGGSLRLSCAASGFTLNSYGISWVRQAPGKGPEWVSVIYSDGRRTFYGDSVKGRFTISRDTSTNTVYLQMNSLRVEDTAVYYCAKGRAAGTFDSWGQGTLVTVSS
VL: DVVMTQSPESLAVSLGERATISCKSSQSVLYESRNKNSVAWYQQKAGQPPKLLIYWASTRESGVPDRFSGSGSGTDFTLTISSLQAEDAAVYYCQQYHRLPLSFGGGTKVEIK

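The starting antibody came from a phage panning campaign against this peptide. This is the validation round: designs drawn from the data on random variants, tested in the same kind of assay. Group labels follow the data file (En: ensemble of fine-tuned language models; HC: hill climbing; Gen: genetic algorithm; Gibbs: Gibbs sampling; a sequence that several methods proposed may carry one label only). AlphaSeq pools MATa yeast showing the antibodies with MATalpha yeast showing the peptide. Binding brings cells together so that they mate, and sequencing counts the barcode pairs among the diploids. Scores were corrected for input abundance and mapped to Kd with protein pairs of known affinity run in the same pool. Each pool was mated in six replicate cultures.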

Each variant is given by its three heavy chain CDRs, as the data file delimits them; those of the parent are GFTLNSYGIS, VIYSDGRRTFYGDSVK, GRAAGTFDS. Variants here have more than six changes. Values are apparent Kd, the geometric mean of the replicates that gave a signal; lower means stronger binding. "no signal" means that the variant was in the library but no mating with the target was seen in any replicate; the authors take this as a sign of poor binding, and no number exists. As a blank, each scFv also met three strains without target: over all heavy chain designs, 1% of these pairings were detected, typically at 120 nM and seldom below 7.0 nM. The control count says in how many pairings with the empty strains this scFv gave a signal. Values of this round are not directly comparable with the first-round values of the same sequences. Of ten entries with the parent sequence, four were seen in most replicates (averages 2.2 nM to 240 nM), three in one and three in none, so single entries are noisy. The authors' rule: three or more of the six replicates give a measured affinity, fewer mean a poor binder.

| CDR-H1 | CDR-H2 | CDR-H3 | group | Kd | detected | empty controls |
|---|---|---|---|---|---|---|
| GFDLNEYGIS | VIYADGRRTFYADSVK | GNNAGTFIM | En_HC | 6.5 µM | 1 of 6 | 1 of 18 |
| GFDLNEYGIS | VIYADGVRKAYADSVK | GNQAGTFDI | En_Gen | 130 pM | 6 of 6 | 0 of 18 |
| GFNLDEYGIS | VIYADGMRTAYADSVK | GNVAGTFDT | En_Gen | 380 pM | 6 of 6 | 0 of 18 |
| GFDLNEYGIS | VIYADGVRTFYADSVK | GKIAGTFNV | En_HC | 430 pM | 6 of 6 | 0 of 18 |
| GFDLNEYGIS | VIYADGVRTAYSDSVK | GKNAGTFDV | En_Gen | 190 pM | 6 of 6 | 0 of 18 |
| GFDLNEYGIS | VIYADGMRTAYTDSVK | GANAGTFDQ | En_HC | 2.0 nM | 6 of 6 | 0 of 18 |
| GFDLNEYGIS | VIYADGLRTSYADSVK | GQEAGTFDV | En_HC | 1.3 nM | 6 of 6 | 0 of 18 |
| GFDLNEYGIS | VIYADGRRTYYADSVK | GNVAGTFDV | En_Gen | 590 pM | 6 of 6 | 0 of 18 |
| GFDINEYGIS | VIYADGRRTFYADSVK | GNVAGTFDL | En_HC | 400 pM | 6 of 6 | 0 of 18 |
| GFDLNEYGIS | VIYADGMRTVYSDSVK | GEVAGTFDV | En_Gen | 340 pM | 6 of 6 | 1 of 18 |
| GNDLEEYGIS | VIYADGIRTNYSQNVK | GTLGDTFTQ | En_Gibbs | no signal | 0 of 6 | 0 of 18 |
| GMDLDEYGIS | VIYADGERSAFANQVK | GVLGGFLTV | En_Gibbs | no signal | 0 of 6 | 0 of 18 |
| GFDLNEYGIS | VIYADGKRTAYVDSVK | GNQAGTFDI | En_Gen | 420 pM | 6 of 6 | 0 of 18 |
| GFDLDEYGIS | VIYADGMRTAYSDDVK | GNVAGTFDL | En_Gen | 43 pM | 6 of 6 | 0 of 18 |
| GFDLNEYGIS | VIYADGMRKVYADSVK | GNVAGTFDI | En_Gen | 420 pM | 6 of 6 | 0 of 18 |
| GFDLNEYGIS | VIYADGVRTAYADKVK | GNVAGTFDM | En_Gen | 290 pM | 6 of 6 | 0 of 18 |
| GFDLNEYGIS | VIYADGSRTAYANSVK | GEVAGTFDV | En_Gen | 230 pM | 6 of 6 | 0 of 18 |
| GFDLNEYGIS | VIYADGKRTAYADSVK | GNVAGTFDT | En_Gen | 990 pM | 6 of 6 | 0 of 18 |
| GFDLNDYGIS | VIYADGRRTFYADSVK | GETAGTFDI | En_HC | 400 pM | 6 of 6 | 0 of 18 |
| GNVLDEYGIS | VIYADGMRTSYQQNFK | GQEGDNFMT | En_Gibbs | no signal | 0 of 6 | 0 of 18 |
| GFDLNEYGIS | VIYADGRRTFYIDSVK | GEVAGTFDV | En_HC | 210 pM | 6 of 6 | 0 of 18 |
| GFDLDEYGIS | VIYADGRRTFYADSVK | GNSAGTFDS | En_HC | 400 pM | 6 of 6 | 0 of 18 |
| GFDLNEYGIS | VIYADGMRTFYTDSVK | GEVAGTFDD | En_HC | 290 pM | 6 of 6 | 0 of 18 |
| GFDLNEYGIS | VIYADGQRTAYTDSVK | GETAGTFDV | En_Gen | 650 pM | 6 of 6 | 0 of 18 |
| GFDLDEYGIS | VIYADGMRTAYSDDVK | GNVAGTFDV | En_Gen | 170 pM | 6 of 6 | 0 of 18 |
| GFQLDEYGIS | VIYADGLRTVYKDAVK | GSDTGLFMI | En_Gibbs | no signal | 0 of 6 | 1 of 18 |
| GFDLNEYGIS | VIYADGRRTFYTDSVK | GEVAGTFDD | En_HC | 410 pM | 6 of 6 | 1 of 18 |
| GFDLNEYGIS | VIYADGRRTFYADSVK | GQTAGTFSV | En_HC | 540 pM | 6 of 6 | 0 of 18 |
| GFDLNEYGIS | VIYADGRRTFYADSVK | GETAGTFDF | En_HC | 240 pM | 6 of 6 | 0 of 18 |
| GFDLNEYGIS | VIYADGVRTFYSDSVK | GEIAGTFDS | En_HC | 190 pM | 6 of 6 | 0 of 18 |
| GFNLDEEGIS | VIYADGVRMSYTDSVK | GYLDGYITD | En_Gibbs | no signal | 0 of 6 | 0 of 18 |
| GFDLDEYGIS | VIYADGKRTAYADSVK | GENAGTFDL | En_Gen | 340 pM | 6 of 6 | 0 of 18 |
| GDILEEYGIS | VIYADGMRTYYEDSVK | GNVNGVFFI | En_Gibbs | 16 nM | 5 of 6 | 0 of 18 |
| GFVLEEYGIS | VIYADGMRTAYAEDFK | GLTGGNLHH | En_Gibbs | no signal | 0 of 6 | 0 of 18 |
| GFDLDEYGIS | VIYADGMRTAYTDSVK | GNNAGTFDL | En_Gen | 940 pM | 6 of 6 | 0 of 18 |
| GFDLGEYGIS | VIYADGERKSYAQKVK | GKNGAISYV | En_Gibbs | no signal | 0 of 6 | 0 of 18 |
| GFDLNEYGIS | VIYADGVRTAYADSVK | GETAGTFDL | En_Gen | 120 pM | 6 of 6 | 0 of 18 |
| GFDLNEYGIS | VIYADGRRTFYTDSVK | GTHAGTFDV | En_HC | 330 pM | 6 of 6 | 0 of 18 |
| GFDLNEYGIS | VIYADGRRTFYADSVK | GELAGTFDV | En_HC | 250 pM | 6 of 6 | 0 of 18 |
| GFDLNEYGIS | VIYADGRRTAYADKVK | GNVAGTFDL | En_Gen | 300 pM | 6 of 6 | 0 of 18 |
| GDNIDEYGIS | VIYADGHRKQYSENVK | GYNAGTLDE | En_Gibbs | no signal | 0 of 6 | 0 of 18 |
| GFDLDEYGIS | VIYADGMRTAYQDSVK | GNVAGTFDL | En_Gen | 510 pM | 6 of 6 | 1 of 18 |
| GFDLEKYGIH | VIYADGIRKSYSDSVK | GDLSGTFYV | En_Gibbs | 18 nM | 6 of 6 | 1 of 18 |
| GFDLNEYGIS | VIYADGMRQAYADDVK | GNNAGTFDV | En_Gen | 380 pM | 6 of 6 | 0 of 18 |
| GFNLEEYGIS | VIYADGMRTNYADKVK | GGLDVQEGY | En_Gibbs | no signal | 0 of 6 | 0 of 18 |
| GFDLNEYGIS | VIYADGSRTAYSDSVK | GEVAGTFDM | En_Gen | 730 pM | 6 of 6 | 2 of 18 |
| GFDLNEYGIS | VIYADGSRTAYADSVK | GSNAGTFDI | En_Gen | 53 nM | 3 of 6 | 0 of 18 |
| GFDLNEYGIS | VIYADGMRTSYADSVK | GENAGTFDL | En_Gen | 540 pM | 6 of 6 | 0 of 18 |
| GFDLNEYGIS | VIYADGRRTAYDDSVK | GQVAGTFDL | En_HC | 630 pM | 6 of 6 | 1 of 18 |
| GFNLDEYGIS | VIYADGMRTAYADDVK | GNVAGTFDV | En_Gen | 310 pM | 6 of 6 | 3 of 18 |
| GFTIDEYGIS | VIYADGQRVAYDEKFK | GMLAGTFDQ | En_Gibbs | 1.3 nM | 6 of 6 | 0 of 18 |
| GFDIDEYGIS | VIYADGRRTFYADSVK | GQNAGTFDS | En_HC | 450 pM | 6 of 6 | 0 of 18 |
| GGDIQDYGIS | VIYADGQRASYADEVK | GNIGGIFST | En_Gibbs | no signal | 0 of 6 | 0 of 18 |
| GFDLNEYGIS | VIYADGMRTYYADSVK | GKNAGTFDV | En_Gen | 400 pM | 6 of 6 | 0 of 18 |
| GFDLNEYGIS | VIYADGMRTSYADSVK | GNEAGTFDV | En_Gen | 500 pM | 6 of 6 | 0 of 18 |
| GFKIEEYGIS | VIYADGQRMMYASNFK | GKIAGTFNL | En_Gibbs | 3.5 nM | 6 of 6 | 0 of 18 |
| GFDLNEYGIS | VIYADGMRTYYADSVK | GQNAGTFDL | En_Gen | 390 pM | 6 of 6 | 0 of 18 |
| GFNLDEYGIS | VIYADGMRTFYADSVK | GSHAGTFDT | En_HC | 790 pM | 6 of 6 | 0 of 18 |
| GFNLDEYGIS | VIYADGKRCQYANTVK | GELAGFFML | En_Gibbs | no signal | 0 of 6 | 0 of 18 |
| GFDLNEYGIS | VIYADGMRTYYADDVK | GNVAGTFDQ | En_Gen | 690 pM | 6 of 6 | 0 of 18 |
| GRDLDEYGIS | VIYADGVRQAYQDSVK | GNWSGTMMY | En_Gibbs | no signal | 0 of 6 | 0 of 18 |
| GFDLNEYGIS | VIYADGKRTAYTDSVK | GNQAGTFDL | En_Gen | 730 pM | 6 of 6 | 0 of 18 |

The measurements come from Li et al. 2023 (doi:10.1038/s41467-023-39022-2) through the FLAb antibody collection.